Earlier results on one molecule are cited in PMC3402085 (ACS medicinal chemistry letters, 2012).

The data set deals with ALS. The note with it: FDA-approved drug for ALS; cited from earlier work.

`Nc1nc2ccc(OC(F)(F)F)cc2s1` [riluzole]: the extension of survival is recorded as 2–3 months.
